Reference: PMC5679609 (PLoS ONE, 2017)

Molecular target: RhoGDI1 (GDP-dissociation inhibitor 1) (human (endogenous in MCF-7)) (UniProt P52565)
Assay: co-IP; anti-RhoGDI1 antibody, lysates of the MCF-7 lines expressing the SDC4 constructs; Mg2+-lysis buffer; blot for GFP::SDC4, Rac1 or RhoA

Rac1 (from UniProt P63000 1-192) (natural protein; other documents disagree on this pair)
increase of co-precipitated Rac1 in Ser179Glu SDC4 cells against the other cell lines: 50%
